{
  "source": "PubChem BioAssay AID1910",
  "about": "(Broad Institute, 2009)",
  "note": "This is a selection; strong and weak results do not stand in their true shares. Calls of active or inactive are those of the source.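 Rule for the calls: active = mean activation of at least 10% of the iron chelator positive control signal, with at least half of replicates also reaching 10%; inconclusive = mean and replicate majority disagree about reaching 10%; inactive = mean and most replicates under 10%.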",
  "data": [
    {"assay": "HIF pathway transcriptional activators, primary screen, cell-based, U2OS HRE-luciferase, luminescence (AID 1910)", "settings": "U2OS HRE-luciferase reporter, stronger effect = higher value, screened at 7.5 µM (by protocol), normalized: DMSO 0%, desferrioxamine 100%", "values": [
      {"smiles": "CN(C)c1ccc(C(=O)NCC2(N3CCCCC3)CCCCC2)cc1", "activation": "inactive: -0.439%"},
      {"smiles": "CCN1CCC(Nc2cccc(F)c2)CC1", "activation": "inactive: -0.0656%"},
      {"smiles": "Cc1ccc(C(=O)NCC2(N3CCCCC3)CCCCC2)o1", "activation": "inactive: 0.19%"},
      {"smiles": "Fc1ccccc1NC1CCN(Cc2ccccc2)CC1", "activation": "inactive: -0.0313%"},
      {"smiles": "COc1cc(OC)cc(C(=O)NCC2(N3CCCCC3)CCCCC2)c1", "activation": "inactive: -0.721%"},
      {"smiles": "CN1CCC(Nc2ccc(Cl)cc2)CC1", "activation": "inactive: 0.0709%"},
      {"smiles": "CCCOc1ccc(C)cc1CN(CCCl)CCCl", "activation": "inactive: 0.196%"},
      {"smiles": "COc1cc(OC)cc(C(=O)NCC2(N3CCOCC3)CCCCC2)c1", "activation": "inactive: -1.36%"},
      {"smiles": "COc1cccc(C(=O)N(c2cc(C)cc(C)c2)C2CCN(C(=O)OC(C)(C)C)CC2)c1", "activation": "inactive: -0.279%"},
      {"smiles": "CCC(CO)(C(=O)OC1CN2CCC1CC2)c1ccccc1", "note": "(centres undefined)", "activation": "inactive: -0.164%"},
      {"smiles": "CC(C)(C)OC(=O)N1CCC(Nc2ccccc2)CC1", "activation": "inactive: -0.0431%"},
      {"smiles": "O=C(O)C1(Nc2ccccc2)CCN(Cc2ccccc2)CC1", "activation": "inactive: -3.63%"},
      {"smiles": "CCCOc1ccc(C(=O)NCC2(N(C)C)CCCCC2)cc1", "activation": "inactive: 1.51%"},
      {"smiles": "CCOc1ncccc1C(=O)NCC1(N2CCOCC2)CCCCC1", "activation": "inactive: -0.694%"},
      {"smiles": "CN1CCC(Nc2ccc(F)c(Cl)c2)CC1", "activation": "inactive: -1.87%"},
      {"smiles": "O=C(OC1CN2CCC1CC2)C1c2ccccc2C=Cc2ccccc21", "note": "(centres undefined)", "activation": "inactive: 0.403%"},
      {"smiles": "CCc1cc(C(=O)NCC2(N3CCCCC3)CCCCC2)sc1C", "activation": "inactive: -0.562%"},
      {"smiles": "CCOC(=O)N1CCC(Nc2ccc(C)cc2)CC1", "activation": "inactive: -2.5%"},
      {"smiles": "N/C(=N\\O)c1c(N)no[n+]1[O-]", "activation": "inactive: -0.2%"},
      {"smiles": "COc1ccc(C(=O)NCC2(N3CCOCC3)CCCCC2)cc1OC", "activation": "inactive: -0.123%"},
      {"smiles": "CN(C)C1(CNC(=O)c2cccc(C#N)c2)CCCCC1", "activation": "inactive: -1.98%"},
      {"smiles": "c1ccc(CN2CCC(Nc3ccccc3)CC2)cc1", "activation": "inactive: -1.63%"},
      {"smiles": "CCCN1CCC(Nc2cc(OC)cc(OC)c2)CC1", "activation": "inactive: -3.96%"},
      {"smiles": "N#Cc1ccc(C(=O)NCC2(N3CCCCC3)CCCCC2)cc1", "activation": "inactive: -0.732%"},
      {"smiles": "CC(C)(C)OC(=O)N1CCC(N(C(=O)c2ccccc2)c2ccc(Cl)cc2)CC1", "activation": "inactive: 0.0481%"},
      {"smiles": "COc1cc(C(=O)NCC2(N3CCCCC3)CCCCC2)ccc1OC(F)F", "activation": "inactive: 0.555%"},
      {"smiles": "O=C(NCC1(N2CCOCC2)CCCCC1)c1cc(=O)[nH]c2ccccc12", "activation": "inactive: -0.161%"},
      {"smiles": "CN1CCN(CCOC(=O)C(O)(c2ccccc2)c2ccccc2)CC1", "activation": "inactive: 1.03%"},
      {"smiles": "COc1ccc(NC2CCN(C(=O)OC(C)(C)C)CC2)cc1", "activation": "inactive: 0.467%"},
      {"smiles": "O=C(NCC1(N2CCCCC2)CCCCC1)c1cccc(C(F)(F)F)c1", "activation": "inactive: -0.702%"},
      {"smiles": "CCN1CCC(Nc2ccc(Cl)cc2)CC1", "activation": "inactive: -1%"},
      {"smiles": "N#CC1(Nc2ccccc2)CCN(CCc2ccccc2)CC1", "activation": "inactive: 0.0182%"},
      {"smiles": "O=C(NCC1(N2CCCCC2)CCCCC1)c1cccc([N+](=O)[O-])c1", "activation": "inactive: -1.11%"},
      {"smiles": "O=C(NCC1(N2CCCCC2)CCCCC1)c1ccc(OC(F)F)cc1", "activation": "inactive: 0.358%"},
      {"smiles": "CCCOc1ccc(C(=O)NCC2(N(C)C)CCCCC2)cc1OC", "activation": "inactive: -0.0852%"},
      {"smiles": "CN1CCC(Nc2cccc(F)c2)CC1", "activation": "inactive: 0.589%"},
      {"smiles": "COc1cc(OC)c(C(=O)NCC2(N(C)C)CCCCC2)cc1OC", "activation": "inactive: -0.576%"},
      {"smiles": "CC(C)c1ccc(NC2CCN(C(=O)OC(C)(C)C)CC2)cc1", "activation": "inactive: 3.37%"},
      {"smiles": "COc1ccc(CN(CCCl)CCCl)cc1Cl", "activation": "inactive: -0.617%"},
      {"smiles": "CN(C)c1cccc(C(=O)NCC2(N3CCCCC3)CCCCC2)c1", "activation": "inactive: -0.656%"},
      {"smiles": "O=C(OC1CN2CCC1CC2)C1c2ccccc2Oc2ccccc21", "note": "(centres undefined)", "activation": "inactive: 0.368%"},
      {"smiles": "N#CC1(Nc2ccccc2)CCN(Cc2ccccc2)CC1", "activation": "inactive: -0.00916%"},
      {"smiles": "CCOC(=O)N1CCC(Nc2ccc(OC)cc2)CC1", "activation": "inactive: -0.188%"},
      {"smiles": "O=C(NCC1(N2CCCCC2)CCCCC1)c1ccc(Cl)nc1", "activation": "inactive: 0.288%"},
      {"smiles": "Cc1cc(C)cc(N(C(=O)c2ccccc2)C2CCN(C(=O)OC(C)(C)C)CC2)c1", "activation": "inactive: 1.25%"},
      {"smiles": "O=C(NCC1(N2CCOCC2)CCCCC1)c1cc2ccccc2o1", "activation": "inactive: -0.225%"},
      {"smiles": "CSc1ccccc1C(=O)NCC1(N2CCCCC2)CCCCC1", "activation": "inactive: -1.37%"},
      {"smiles": "COc1ccc(C(=O)NCC2(N3CCCCC3)CCCCC2)cc1", "activation": "inactive: 0.611%"},
      {"smiles": "CC(C)(C)OC(=O)N1CCC(N(C(=O)c2ccccc2)c2ccc(F)cc2)CC1", "activation": "inactive: 0.0904%"},
      {"smiles": "COc1ccc(C(=O)NCC2(N3CCCCC3)CCCCC2)c(OC)c1OC", "activation": "inactive: 0.0903%"},
      {"smiles": "O=C(NCC1(N2CCCCC2)CCCCC1)c1ccc(=O)[nH]c1", "activation": "inactive: -0.543%"},
      {"smiles": "O=C(NCC1(N2CCCCC2)CCCCC1)c1cccs1", "activation": "inactive: 0.175%"},
      {"smiles": "COc1cc(C(=O)NCC2(N(C)C)CCCCC2)ccc1OC(F)F", "activation": "inactive: -0.238%"},
      {"smiles": "CCOC(=O)N1CCC(Nc2cccc(C)c2)CC1", "activation": "inactive: -2.39%"},
      {"smiles": "Cc1ccc(OCC(C)C)c(CN(CCCl)CCCl)c1", "activation": "inactive: -0.536%"},
      {"smiles": "O=C(NCC1(N2CCCCC2)CCCCC1)c1ccc(F)cc1", "activation": "inactive: 1.22%"},
      {"smiles": "COc1ccc(NC2CCN(CCc3ccccc3)CC2)c(OC)c1", "activation": "inactive: -0.746%"},
      {"smiles": "CCOC(=O)N1CCC(Nc2ccc(F)cc2)CC1", "activation": "inactive: 1.26%"},
      {"smiles": "CCOc1ccc(C)cc1CN(CCCl)CCCl", "activation": "inactive: -0.374%"}
    ]}
  ]
}
